Where two headings read alike, the source gives them in different places.
Experiments:
[1] = target: EGFR D19TMCS (del19/T790M/C797S) (Homo sapiens, UniProt P00533, C797S/DEL746-750/T790M); experiment: Biochemical EGFR kinase inhibition (Lance Ultra TR-FRET), del19/T790M/C797S; details: read-out: EGFR D19TMCS IC50
[2] = target: EGFR LRTMCS (L858R/T790M/C797S) (Homo sapiens, UniProt P00533, C797S/L858R/T790M); experiment: Biochemical EGFR kinase inhibition (Lance Ultra TR-FRET), L858R/T790M/C797S; details: read-out: EGFR LRTMCS IC50
[3] = target: EGFR D19CS (del19/C797S) (Homo sapiens, UniProt P00533, C797S/DEL746-750); experiment: Biochemical EGFR kinase inhibition (Lance Ultra TR-FRET), del19/C797S; details: read-out: EGFR D19CS IC50
[4] = target: EGFR LRCS (L858R/C797S) (Homo sapiens, UniProt P00533, C797S/L858R); experiment: Biochemical EGFR kinase inhibition (Lance Ultra TR-FRET), L858R/C797S; details: read-out: EGFR LRCS IC50
[5] = target: EGFR WT (Homo sapiens, UniProt P00533); experiment: Biochemical EGFR kinase inhibition (Lance Ultra TR-FRET), wildtype; details: read-out: EGFR WT IC50; ATP at Km

Chains of the proteins cited; added tags and fusions are not shown. Lines headed by an entry give the natural chain unless they say otherwise; changes in a name come on top. A line that says so, or that is headed by a name, gives the form on record, which may keep a tag or linker. Residues count along the entry.
UniProt P00533, 25-1210 C797S/L858R limits assumed: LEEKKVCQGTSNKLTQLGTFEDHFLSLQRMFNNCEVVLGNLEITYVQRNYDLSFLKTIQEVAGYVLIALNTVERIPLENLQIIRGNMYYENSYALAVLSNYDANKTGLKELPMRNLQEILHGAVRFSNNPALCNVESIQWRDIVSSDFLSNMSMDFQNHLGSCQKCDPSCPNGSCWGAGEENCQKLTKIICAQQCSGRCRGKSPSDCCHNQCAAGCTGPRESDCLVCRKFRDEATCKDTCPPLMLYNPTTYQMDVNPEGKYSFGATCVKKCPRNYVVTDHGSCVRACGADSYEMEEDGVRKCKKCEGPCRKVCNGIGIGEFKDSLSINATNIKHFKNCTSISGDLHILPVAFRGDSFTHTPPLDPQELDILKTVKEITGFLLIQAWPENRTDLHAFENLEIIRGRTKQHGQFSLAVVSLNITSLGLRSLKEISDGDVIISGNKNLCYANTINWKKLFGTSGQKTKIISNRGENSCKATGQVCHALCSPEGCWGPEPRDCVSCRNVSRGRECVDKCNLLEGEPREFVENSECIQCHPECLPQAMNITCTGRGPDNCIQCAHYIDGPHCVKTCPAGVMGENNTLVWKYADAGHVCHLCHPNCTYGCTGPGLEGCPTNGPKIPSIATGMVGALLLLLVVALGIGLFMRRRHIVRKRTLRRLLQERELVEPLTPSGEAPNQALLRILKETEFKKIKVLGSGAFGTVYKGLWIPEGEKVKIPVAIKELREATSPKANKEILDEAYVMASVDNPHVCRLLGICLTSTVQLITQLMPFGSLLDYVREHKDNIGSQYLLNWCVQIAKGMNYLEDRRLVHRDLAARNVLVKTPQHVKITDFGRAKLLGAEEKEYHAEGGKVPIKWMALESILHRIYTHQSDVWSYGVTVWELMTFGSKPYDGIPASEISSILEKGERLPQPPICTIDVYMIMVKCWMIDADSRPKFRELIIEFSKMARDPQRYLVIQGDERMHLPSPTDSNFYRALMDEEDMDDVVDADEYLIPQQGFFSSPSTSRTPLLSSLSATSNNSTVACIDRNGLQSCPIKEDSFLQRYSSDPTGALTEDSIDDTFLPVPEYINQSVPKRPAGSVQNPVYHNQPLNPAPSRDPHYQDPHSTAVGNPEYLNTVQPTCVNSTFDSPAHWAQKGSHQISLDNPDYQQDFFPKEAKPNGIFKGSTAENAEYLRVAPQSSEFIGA
UniProt P00533, 25-1210 T790M/C797S/L858R limits assumed: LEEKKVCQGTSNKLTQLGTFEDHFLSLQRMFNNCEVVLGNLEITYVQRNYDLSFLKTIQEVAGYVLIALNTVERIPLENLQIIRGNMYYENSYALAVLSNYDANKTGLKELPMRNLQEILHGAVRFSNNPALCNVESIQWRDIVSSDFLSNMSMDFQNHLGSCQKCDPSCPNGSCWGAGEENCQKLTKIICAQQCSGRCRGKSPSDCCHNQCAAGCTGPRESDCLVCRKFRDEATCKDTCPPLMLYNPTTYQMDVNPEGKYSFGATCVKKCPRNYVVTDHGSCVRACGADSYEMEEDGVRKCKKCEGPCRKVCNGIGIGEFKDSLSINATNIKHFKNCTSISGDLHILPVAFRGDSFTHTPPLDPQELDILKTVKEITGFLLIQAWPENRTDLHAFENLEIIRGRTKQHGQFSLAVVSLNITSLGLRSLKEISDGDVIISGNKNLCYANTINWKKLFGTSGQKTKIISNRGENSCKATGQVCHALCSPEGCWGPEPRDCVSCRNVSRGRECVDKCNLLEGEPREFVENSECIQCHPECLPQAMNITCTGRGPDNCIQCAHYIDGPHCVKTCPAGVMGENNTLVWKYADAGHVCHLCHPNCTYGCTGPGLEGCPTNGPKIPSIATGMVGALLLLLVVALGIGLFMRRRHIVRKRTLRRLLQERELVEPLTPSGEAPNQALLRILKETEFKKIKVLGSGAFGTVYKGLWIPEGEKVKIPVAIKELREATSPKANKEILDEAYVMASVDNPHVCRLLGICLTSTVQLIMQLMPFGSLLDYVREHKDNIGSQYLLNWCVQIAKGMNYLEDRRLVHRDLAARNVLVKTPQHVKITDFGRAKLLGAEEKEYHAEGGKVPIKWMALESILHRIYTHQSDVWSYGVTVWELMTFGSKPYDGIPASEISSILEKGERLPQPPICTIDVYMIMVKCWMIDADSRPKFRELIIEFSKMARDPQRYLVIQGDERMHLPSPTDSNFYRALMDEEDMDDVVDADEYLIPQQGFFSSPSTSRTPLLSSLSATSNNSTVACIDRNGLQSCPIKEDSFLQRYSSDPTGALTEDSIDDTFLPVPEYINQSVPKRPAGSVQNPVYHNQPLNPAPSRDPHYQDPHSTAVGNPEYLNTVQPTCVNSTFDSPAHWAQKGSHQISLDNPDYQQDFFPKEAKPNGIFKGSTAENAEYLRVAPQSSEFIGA
UniProt P00533, with tags, fused parts or gaps DEL746-750/C797S limits assumed: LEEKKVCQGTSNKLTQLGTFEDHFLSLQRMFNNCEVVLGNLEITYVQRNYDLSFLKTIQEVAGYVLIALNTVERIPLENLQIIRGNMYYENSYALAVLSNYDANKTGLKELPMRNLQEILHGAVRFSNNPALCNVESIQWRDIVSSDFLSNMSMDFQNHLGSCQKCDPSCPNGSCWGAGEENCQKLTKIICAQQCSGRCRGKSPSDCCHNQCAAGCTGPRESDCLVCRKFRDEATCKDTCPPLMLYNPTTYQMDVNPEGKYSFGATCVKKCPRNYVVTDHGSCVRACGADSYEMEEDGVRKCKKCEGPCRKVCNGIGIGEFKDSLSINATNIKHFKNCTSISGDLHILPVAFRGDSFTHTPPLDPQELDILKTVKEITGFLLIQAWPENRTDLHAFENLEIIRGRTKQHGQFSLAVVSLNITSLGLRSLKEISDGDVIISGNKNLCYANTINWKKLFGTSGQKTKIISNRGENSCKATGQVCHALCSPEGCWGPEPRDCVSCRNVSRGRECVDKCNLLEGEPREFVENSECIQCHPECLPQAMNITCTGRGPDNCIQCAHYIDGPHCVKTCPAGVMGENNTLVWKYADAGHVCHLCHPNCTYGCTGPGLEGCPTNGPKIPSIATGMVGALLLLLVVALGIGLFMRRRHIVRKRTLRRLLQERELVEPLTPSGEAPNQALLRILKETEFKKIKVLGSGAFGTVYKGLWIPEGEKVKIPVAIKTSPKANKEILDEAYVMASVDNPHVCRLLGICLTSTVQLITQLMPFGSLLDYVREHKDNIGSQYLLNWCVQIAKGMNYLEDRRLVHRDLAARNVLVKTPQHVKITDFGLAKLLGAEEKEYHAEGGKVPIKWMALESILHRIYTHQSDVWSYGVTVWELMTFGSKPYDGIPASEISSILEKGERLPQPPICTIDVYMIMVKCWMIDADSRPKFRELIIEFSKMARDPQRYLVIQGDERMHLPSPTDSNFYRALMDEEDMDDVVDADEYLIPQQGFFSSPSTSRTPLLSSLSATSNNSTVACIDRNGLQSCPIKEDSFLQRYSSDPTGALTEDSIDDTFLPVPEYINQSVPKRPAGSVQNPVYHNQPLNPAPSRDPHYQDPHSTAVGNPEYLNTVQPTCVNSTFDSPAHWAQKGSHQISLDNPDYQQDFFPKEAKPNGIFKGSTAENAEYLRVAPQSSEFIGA
UniProt P00533, with tags, fused parts or gaps DEL746-750/T790M/C797S limits assumed: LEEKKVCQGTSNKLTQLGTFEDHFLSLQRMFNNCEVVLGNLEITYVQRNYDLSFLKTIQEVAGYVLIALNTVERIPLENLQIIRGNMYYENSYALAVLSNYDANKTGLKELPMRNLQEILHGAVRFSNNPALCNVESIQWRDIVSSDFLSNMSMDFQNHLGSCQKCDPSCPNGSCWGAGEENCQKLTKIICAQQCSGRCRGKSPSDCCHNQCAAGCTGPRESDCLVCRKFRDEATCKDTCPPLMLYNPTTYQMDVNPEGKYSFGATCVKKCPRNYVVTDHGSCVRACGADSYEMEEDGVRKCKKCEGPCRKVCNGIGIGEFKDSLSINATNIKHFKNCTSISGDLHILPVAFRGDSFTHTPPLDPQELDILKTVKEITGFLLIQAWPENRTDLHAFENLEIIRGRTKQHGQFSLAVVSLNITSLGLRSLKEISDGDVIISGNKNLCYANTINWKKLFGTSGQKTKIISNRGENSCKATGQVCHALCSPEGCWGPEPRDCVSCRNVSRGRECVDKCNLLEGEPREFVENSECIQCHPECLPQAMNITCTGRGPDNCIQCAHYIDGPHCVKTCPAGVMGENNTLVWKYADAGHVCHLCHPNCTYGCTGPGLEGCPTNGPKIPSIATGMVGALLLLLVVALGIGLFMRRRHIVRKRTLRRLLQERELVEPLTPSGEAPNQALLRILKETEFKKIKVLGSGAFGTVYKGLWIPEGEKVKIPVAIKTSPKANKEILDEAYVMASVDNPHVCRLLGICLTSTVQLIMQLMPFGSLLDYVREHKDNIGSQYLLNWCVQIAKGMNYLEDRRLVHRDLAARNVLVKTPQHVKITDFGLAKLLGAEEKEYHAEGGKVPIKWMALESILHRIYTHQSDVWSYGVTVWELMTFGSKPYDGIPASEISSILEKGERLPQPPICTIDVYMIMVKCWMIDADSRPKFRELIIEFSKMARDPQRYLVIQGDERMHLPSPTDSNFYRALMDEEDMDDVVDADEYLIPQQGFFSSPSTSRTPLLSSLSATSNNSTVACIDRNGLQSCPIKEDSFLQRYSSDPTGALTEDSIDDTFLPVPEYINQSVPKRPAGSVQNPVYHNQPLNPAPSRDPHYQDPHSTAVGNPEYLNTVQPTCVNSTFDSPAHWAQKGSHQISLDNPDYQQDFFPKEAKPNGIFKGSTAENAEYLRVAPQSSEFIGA
UniProt P00533, 25-1210 limits assumed: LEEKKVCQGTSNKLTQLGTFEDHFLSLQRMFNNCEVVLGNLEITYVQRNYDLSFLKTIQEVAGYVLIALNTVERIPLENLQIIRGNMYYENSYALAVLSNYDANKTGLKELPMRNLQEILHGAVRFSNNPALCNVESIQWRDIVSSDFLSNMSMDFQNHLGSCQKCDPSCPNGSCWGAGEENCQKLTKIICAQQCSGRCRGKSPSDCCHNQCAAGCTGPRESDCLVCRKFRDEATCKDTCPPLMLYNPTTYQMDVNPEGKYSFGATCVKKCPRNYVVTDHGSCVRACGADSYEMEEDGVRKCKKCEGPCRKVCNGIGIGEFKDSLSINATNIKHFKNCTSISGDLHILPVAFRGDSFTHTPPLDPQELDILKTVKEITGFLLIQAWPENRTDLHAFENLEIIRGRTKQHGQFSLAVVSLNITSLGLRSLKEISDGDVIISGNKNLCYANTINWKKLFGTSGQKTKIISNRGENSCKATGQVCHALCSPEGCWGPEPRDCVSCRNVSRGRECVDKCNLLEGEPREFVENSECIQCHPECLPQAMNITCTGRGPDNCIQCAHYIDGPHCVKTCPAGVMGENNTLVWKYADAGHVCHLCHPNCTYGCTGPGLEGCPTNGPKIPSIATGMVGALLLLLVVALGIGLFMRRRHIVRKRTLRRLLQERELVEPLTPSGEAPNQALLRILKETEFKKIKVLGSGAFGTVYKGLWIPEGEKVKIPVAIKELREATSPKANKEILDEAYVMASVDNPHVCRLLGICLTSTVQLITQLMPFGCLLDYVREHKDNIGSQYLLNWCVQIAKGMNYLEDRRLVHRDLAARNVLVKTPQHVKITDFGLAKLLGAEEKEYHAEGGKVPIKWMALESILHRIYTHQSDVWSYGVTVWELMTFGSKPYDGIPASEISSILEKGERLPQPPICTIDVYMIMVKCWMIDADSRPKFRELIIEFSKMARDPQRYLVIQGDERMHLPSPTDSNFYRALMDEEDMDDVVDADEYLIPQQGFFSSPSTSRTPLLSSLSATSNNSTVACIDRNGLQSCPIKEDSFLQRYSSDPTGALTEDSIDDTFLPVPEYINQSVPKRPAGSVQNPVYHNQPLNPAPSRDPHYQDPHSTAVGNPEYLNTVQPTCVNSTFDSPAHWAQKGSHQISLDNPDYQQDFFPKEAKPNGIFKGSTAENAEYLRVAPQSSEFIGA

Compound | IC50 ([1]; 1 mM ATP) | IC50 ([1]; ATP at Km) | IC50 ([2]; 1 mM ATP) | IC50 ([2]; ATP at Km) | IC50 ([3]; 1 mM ATP) | IC50 ([3]; ATP at Km) | IC50 ([4]; 1 mM ATP) | IC50 ([4]; ATP at Km) | IC50 [5]
CC(C)n1ncc2c1OCC[C@H](C)Nc1cc(ncc1C#Cc1cnn(C(F)F)c1)Nc1ccnc-2n1 | 10 to 100 nM | < 10 nM | 10 to 100 nM | < 10 nM | > 1000 nM | > 1000 nM | > 1000 nM | 100 to 1000 nM | 100 to 1000 nM
C[C@H]1CCNc2cc(ncc2C#Cc2cnn(C(F)(F)F)c2)Nc2ccnc(n2)-c2cnn(C)c2O1 | < 10 nM | < 10 nM | < 10 nM | < 10 nM | 10 to 100 nM | 10 to 100 nM | 100 to 1000 nM | 10 to 100 nM | 10 to 100 nM
Cn1cc(C#Cc2cnc3cc2NCC(C)(C)COc2c(cnn2C)-c2nccc(n2)N3)cn1 | < 10 nM | < 10 nM | < 10 nM | < 10 nM | 10 to 100 nM | < 10 nM | 100 to 1000 nM | < 10 nM | 10 to 100 nM
Cn1ncc2c1OC[C@@H](F)CNc1cc(ncc1C#Cc1cnn(C(F)(F)F)c1)Nc1ccnc-2n1 | 10 to 100 nM | < 10 nM | 10 to 100 nM | < 10 nM | > 1000 nM | > 1000 nM | > 1000 nM | > 1000 nM | 100 to 1000 nM
CCn1ncc2c1OCC[C@H](C)Nc1cc(ncc1C#Cc1cnn(C)c1)Nc1ccnc-2n1 | < 10 nM | < 10 nM | < 10 nM | < 10 nM | 100 to 1000 nM | 10 to 100 nM | 100 to 1000 nM | < 10 nM | 10 to 100 nM
Cn1cc(C#Cc2cnc3cc2NC[C@@H](F)COc2c(cnn2C)-c2nccc(n2)N3)cn1 | 10 to 100 nM | < 10 nM | 100 to 1000 nM | 10 to 100 nM | > 1000 nM | > 1000 nM | > 1000 nM | > 1000 nM | > 1000 nM
C[C@@H]1CCOc2c(cnn2C)-c2nccc(n2)Nc2cc(c(C#Cc3cnn(CCF)c3)cn2)N1 | 10 to 100 nM | < 10 nM | 100 to 1000 nM | < 10 nM | 100 to 1000 nM | 100 to 1000 nM | > 1000 nM | 100 to 1000 nM | 100 to 1000 nM
